The target in the assay is cloned human MC4R receptors (Homo sapiens, UniProt P32245). The assay can be described thus: Melanocortin MC4R membrane binding assay ([125I]NDP-α-MSH competition). The following applies: read-out: MC4R IC50; [125I]NDP-α-MSH 0.1 nM, membranes of Hi5 insect cells or HEK-293 cells, 90 minutes at 37° C. Here is the method:
Melanocortin MC4R Binding Assay. […] A membrane binding assay was used to identify competitive ligands of [^125I]NDP-α-MSH binding to cloned human MC4R receptors expressed in Hi5 insect cells or HEK-293 cells transfected by a baculovirus/human MC4R receptor construct. The membrane binding buffer was composed of 25 mM HEPES, pH 7.4, 140 mM NaCl, 1.2 mM MgCl2, 2.5 mM CaCl2, and 0.1% BSA Membrane protein (0.5 μg) and [^125I]-NDP-α-MSH (to a final concentration of 0.1 nM) were added. Competing ligands or a buffer blank were added and incubated for 90 minutes at 37° C. After filtration, the cell membranes were evaluated in a Wallac Microbeta Trilux Scintillation and Luminescence Counter (Model 1450). Dose-response cureves were fitted by […] analyses and IC50 values are calculated using ExcelFit. MC4R IC50 values: <250 nM=+++; 250–1000 nM=++; 1000–10000=+.

By UniProt entry, the sequences of proteins in these tests, tags left out.
UniProt P32245, whole entry: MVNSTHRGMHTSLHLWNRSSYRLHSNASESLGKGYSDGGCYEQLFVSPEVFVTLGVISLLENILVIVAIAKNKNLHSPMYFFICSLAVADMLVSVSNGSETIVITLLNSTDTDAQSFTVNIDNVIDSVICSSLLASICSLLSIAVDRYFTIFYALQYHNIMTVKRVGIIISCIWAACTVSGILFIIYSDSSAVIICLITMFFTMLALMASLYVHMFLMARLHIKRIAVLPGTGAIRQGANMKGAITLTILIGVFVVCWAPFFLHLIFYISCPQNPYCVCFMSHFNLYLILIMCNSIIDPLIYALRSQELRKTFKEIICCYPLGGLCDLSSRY

The structures appear in SMILES notation.

As usually defined, the IC50 is the concentration that gives 50% inhibition.

Consider `CC(C)N(C(=O)c1ccco1)[C@H]1CCN(C(=O)[C@@H](Cc2ccc(Cl)cc2)NC(=O)[C@@H]2CNCCN2)C1`, for which the half-maximal inhibitory concentration (IC50) was in the range of 1 to 10 µM.

`CC(C)CC(=O)N(C(C)C)[C@H]1CCN(C(=O)[C@@H](Cc2ccc(Cl)cc2)NC(=O)CCN(C)C)C1`: the IC50 was in the range of 1 to 10 µM.

As to `CN(C)CCC(=O)N[C@H](Cc1ccc(Cl)cc1)C(=O)N1CC[C@H](N(C2CCCC2)S(C)(=O)=O)C1`, the IC50 is 1 to 10 µM.

Take `NCCC(=O)N[C@H](Cc1ccc(Cl)cc1)C(=O)N1CC[C@H](N(C2CCCCC2)S(=O)(=O)c2ccccc2)C1`: the IC50 was 0.25 to 1 µM.

The values above are taken from patent US7049323B2, “Amidoheterocycles as modulators of the melanocortin-4 receptor” (Bristol-Myers Squibb Company, priority 2003, dated 2006).
